Results reported in ChEMBL document CHEMBL3862004, “A Cyclic Tetrapeptide ("Cyclodal") and Its Mirror-Image Isomer Are Both High-Affinity μ Opioid Receptor Antagonists” (J Med Chem, 2016).

The chains behind the UniProt entries cited, without tags or fusion partners. Where a name states a change or a piece, a line headed by the entry shows the natural chain unless it says otherwise.
UniProt P97266, whole entry: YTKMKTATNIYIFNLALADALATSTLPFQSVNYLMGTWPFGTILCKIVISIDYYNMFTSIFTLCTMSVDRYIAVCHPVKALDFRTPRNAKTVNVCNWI
UniProt P41144: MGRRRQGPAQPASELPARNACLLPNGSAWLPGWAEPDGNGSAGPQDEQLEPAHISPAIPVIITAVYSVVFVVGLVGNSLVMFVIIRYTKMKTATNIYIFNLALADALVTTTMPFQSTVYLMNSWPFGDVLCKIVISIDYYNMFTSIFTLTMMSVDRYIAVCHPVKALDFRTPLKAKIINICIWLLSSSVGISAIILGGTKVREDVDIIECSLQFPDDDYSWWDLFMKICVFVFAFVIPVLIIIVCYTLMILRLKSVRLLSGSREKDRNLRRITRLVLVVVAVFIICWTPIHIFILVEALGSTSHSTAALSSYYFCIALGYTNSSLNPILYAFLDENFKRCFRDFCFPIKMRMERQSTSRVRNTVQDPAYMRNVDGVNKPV

How the values were obtained:
[1] = target: Mu-type opioid receptor (Cavia porcellus) (UniProt P97266); test: Antagonist activity at MOR in guinea pig ileum assessed as inhibition of TAPP-induced muscle contractions
Summary of the method: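 Guinea pig ileum preparation. Each preparation was first run with a [Leu5]enkephalin standard dose–response curve for normalisation. Ke was derived from the ratio of TAPP IC50 with and without a fixed antagonist concentration. Mean of three to four determinations ± SEM.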

[2] = target: Kappa-type opioid receptor (Cavia porcellus) (UniProt P41144); test: Antagonist activity at KOR in guinea pig ileum assessed as inhibition of U50,488-induced muscle contractions

## CCCC[C@@H]1NC(=O)[C@H](Cc2ccccc2)NC(=O)[C@@H](CCCNC(=N)N)NC(=O)[C@H](Cc2c(C)cc(O)cc2C)NC1=O
[1]
  Ke: 15.1 nM
[2]
  Ke: 49.7 nM
